Results from ChEMBL document CHEMBL4304746, “Design, Synthesis, and Preclinical Efficacy of Novel Nonretinoid Antagonists of Retinol-Binding Protein 4 in the Mouse Model of Hepatic Steatosis” (J Med Chem, 2019).

Assay: in vitro
Settings: human, microsomes

O=C(O)c1ccccc1NC(=O)N1CCC(c2ccccc2C(F)(F)F)CC1
remaining at 0.5 h, 10 µM: 3%
